Screens deposited in PubChem BioAssay by ICCB-Longwood Screening Facility, Harvard Medical School.
An excerpt weighted towards active compounds, which were near 0.7% of everything screened.
GIV Gai3 FP = inhibitors of GIV peptide binding to Galpha-i3, primary screen, biochemical, fluorescence polarization, FITC-GIV GBA peptide, rat Galphai3; Guanine nucleotide-binding protein G(i) subunit alpha-3 (Rattus norvegicus), P08753; 90 min; stronger effect = lower value; scaled: aluminum fluoride 0%, vehicle 100%; percent of control (FP), % (no concentration beside the values); 210,000 tested, 0.42% active;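 active = replicate mean at 85% of control or lower, very high polarization wells dropped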;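 note: wells of about 15 µL received 100 nL stock; the first replicate is given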
HCMV UL50-53 inh = inhibitors of HCMV UL50-UL53 interaction, biochemical, HTRF; hit rate 0.15% among 190,000; AID 1918969, 2023; normalized percent inhibition; inhibition, % (concentration not given with the values); in the data active means inhibition above about 27%, passing the limit was not always enough
Sa growth 42C = S. aureus growth inhibition at 42 and 30 °C, primary screen, LtaS inhibitor project, RN4220, two temperatures; OD600, 20 h, 42 °C; active compounds read low; relative growth, % (test concentration not listed); hit rate 0.53% among 170,000;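 active means relative growth at most 50% at the other temperature and 20+ points below 30 °C, or under 10% at both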
* = called active by the depositor; · = not tested or not shown.

Amino acid sequences for entries named in this document (tags omitted).
Guanine nucleotide-binding protein G(i) subunit alpha-3 (Rattus norvegicus), P08753, UniProt P08753, whole entry, looked up: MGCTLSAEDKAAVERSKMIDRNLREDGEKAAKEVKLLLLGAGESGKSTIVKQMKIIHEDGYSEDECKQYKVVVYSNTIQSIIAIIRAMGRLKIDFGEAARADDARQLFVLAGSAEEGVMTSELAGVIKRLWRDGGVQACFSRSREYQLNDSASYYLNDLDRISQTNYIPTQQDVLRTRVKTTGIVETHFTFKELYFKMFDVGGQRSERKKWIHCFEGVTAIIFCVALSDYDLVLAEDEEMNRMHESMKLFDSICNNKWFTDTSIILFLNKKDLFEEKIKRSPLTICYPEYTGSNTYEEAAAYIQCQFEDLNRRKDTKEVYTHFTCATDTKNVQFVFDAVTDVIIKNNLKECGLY

[1] O=C(CN1CCC(N2CCCCC2)CC1)NC12CC3CC(CC(C3)C1)C2
- GIV Gai3 FP: 96
- HCMV UL50-53 inh: 8
- Sa growth 42C: 80
[2] FC(F)(F)c1ccccc1-n1ccnc1
- GIV Gai3 FP: 103
- HCMV UL50-53 inh: -17
- Sa growth 42C: ·
[3] Clc1ccccc1C(c1ccccc1)(c1ccccc1)n1ccnc1
- GIV Gai3 FP: 108
- HCMV UL50-53 inh: 37
- Sa growth 42C: 0.2*
[4] O=C(NCc1cccc(Cl)c1)C1CCCN(c2nc3ncccc3n3cccc23)C1 (stereo not drawn)
- GIV Gai3 FP: 114
- HCMV UL50-53 inh: -24
- Sa growth 42C: ·
[5] O=C(O)CCCN1C(=O)/C(=C/c2c(N3CCN(Cc4ccccc4)CC3)nc3ccccn3c2=O)SC1=S
- GIV Gai3 FP: 146
- HCMV UL50-53 inh: -1
- Sa growth 42C: 91
[6] CC(C)CN1C(=O)/C(=C/c2c(N3CCN(CCO)CC3)nc3ccccn3c2=O)SC1=S
- GIV Gai3 FP: 41*
- HCMV UL50-53 inh: -86
- Sa growth 42C: ·
[7] NC1c2c(ccc3ccccc23)OCC1CO (stereo not drawn)
- GIV Gai3 FP: 100
- HCMV UL50-53 inh: -16
- Sa growth 42C: ·
[8] CN(C)CCNc1cc(N2CCN(C(=O)c3ccco3)CC2)c2noc3c2c1C(=O)c1ccccc1-3
- GIV Gai3 FP: -31*
- HCMV UL50-53 inh: -132
- Sa growth 42C: 112
[9] CCNc1cc(N2CCC(C)CC2)c2noc3c2c1C(=O)c1ccccc1-3
- GIV Gai3 FP: 139
- HCMV UL50-53 inh: -72
- Sa growth 42C: 102
[10] CN(C)CCNc1cc(N2CCOCC2)c2noc3c2c1C(=O)c1ccccc1-3
- GIV Gai3 FP: -68*
- HCMV UL50-53 inh: -73
- Sa growth 42C: 113

[11] CCNc1cc(N2CCCC2)c2noc3c2c1C(=O)c1ccccc1-3
- GIV Gai3 FP: 201
- HCMV UL50-53 inh: ·
- Sa growth 42C: 100
[12] CCNc1cc(N2CCN(c3ccccc3)CC2)c2noc3c2c1C(=O)c1ccccc1-3
- GIV Gai3 FP: 114
- HCMV UL50-53 inh: -2
- Sa growth 42C: 96
[13] CCCCNc1cc(N2CCC(C)CC2)c2noc3c2c1C(=O)c1ccccc1-3
- GIV Gai3 FP: 2.5*
- HCMV UL50-53 inh: -60
- Sa growth 42C: ·
[14] COc1ccc(C)cc1NC(=O)COC(=O)c1sc2nc(C)[nH]c(=O)c2c1C
- GIV Gai3 FP: ·
- HCMV UL50-53 inh: -8
- Sa growth 42C: 87
[15] O=C1C(=Cc2ccccc2)C(=O)c2ccccc21
- GIV Gai3 FP: ·
- HCMV UL50-53 inh: -6
- Sa growth 42C: 103
[16] O=C(COC(=O)c1ccccc1)Nc1ccc(OC(F)F)cc1
- GIV Gai3 FP: ·
- HCMV UL50-53 inh: -14
- Sa growth 42C: 101
[17] CC(C(=O)NCc1ccc2c(c1)OCO2)N1CCN(c2ccccc2F)CC1 (stereo not drawn)
- GIV Gai3 FP: ·
- HCMV UL50-53 inh: -20
- Sa growth 42C: 94
[18] CC(C)NC(=O)c1cn2c3c(ccc(Cl)c3c1=O)OC(C)C2 (stereo not drawn)
- GIV Gai3 FP: 101
- HCMV UL50-53 inh: 33
- Sa growth 42C: 101
[19] CNC(=O)c1cn2c3c(ccc(Cl)c3c1=O)OC(C)C2 (stereo not drawn)
- GIV Gai3 FP: 110
- HCMV UL50-53 inh: 50*
- Sa growth 42C: 101
[20] O=C(COc1coc(CN2CCc3ccccc3C2)cc1=O)N1CCCC1
- GIV Gai3 FP: 100
- HCMV UL50-53 inh: -17
- Sa growth 42C: 91

[21] CN(C)c1ccc(C2=CC(C3CC3)=C(C#N)C(=C(C#N)C#N)N2)cc1
- GIV Gai3 FP: 105
- HCMV UL50-53 inh: 11
- Sa growth 42C: 87
[22] COc1ccc(C2=CC(C3CC3)=C(C#N)C(=C(C#N)C#N)N2)cc1
- GIV Gai3 FP: 65*
- HCMV UL50-53 inh: -65
- Sa growth 42C: 117
[23] Cc1ccc2c(c1)-c1onc(C(=O)N(C)c3ccccc3)c1CO2
- GIV Gai3 FP: 101
- HCMV UL50-53 inh: -20
- Sa growth 42C: 94
[24] N#CC(C(=O)CCN1C(=O)c2ccccc2C1=O)c1nc2ccccc2[nH]1 (stereo not drawn)
- GIV Gai3 FP: ·
- HCMV UL50-53 inh: -19
- Sa growth 42C: 99
[25] CCOC(=O)C1(C#N)C(=O)C(C#N)=C2CCCCC2C1c1ccccc1 (stereo not drawn)
- GIV Gai3 FP: -31*
- HCMV UL50-53 inh: -68
- Sa growth 42C: 92
[26] CCOC(=O)C1=C(C)NC2=C(C(=O)CCC2)C1c1ccccc1 (stereo not drawn)
- GIV Gai3 FP: 100
- HCMV UL50-53 inh: -28
- Sa growth 42C: 85
[27] CCc1cc(C2CCCN2S(=O)(=O)c2ccc(C(C)(C)C)cc2)on1 (stereo not drawn)
- GIV Gai3 FP: 108
- HCMV UL50-53 inh: ·
- Sa growth 42C: ·
[28] FC(F)(F)c1cc(NC(=S)NC2CCCCC2)cc(C(F)(F)F)c1
- GIV Gai3 FP: 100
- HCMV UL50-53 inh: -35
- Sa growth 42C: 7.4*
[29] Cc1cc(C)cc(NC(=S)NC2CCCCC2)c1
- GIV Gai3 FP: 102
- HCMV UL50-53 inh: -31
- Sa growth 42C: 79
[30] CCN(CC)c1ccc2cc(-c3nnc(Nc4ccc(C)cc4)s3)c(=O)oc2c1
- GIV Gai3 FP: -70*
- HCMV UL50-53 inh: ·
- Sa growth 42C: 117

Later entries.
cpd	molecule	GIV Gai3 FP	HCMV UL50-53 inh	Sa growth 42C
31	CCOC(=O)c1ccc(Nc2nnc(-c3cc4ccc(N(CC)CC)cc4oc3=O)s2)cc1	229	-10	·
32	COc1ccc(OC)c(S(=O)(=O)N2CCc3cc(OC)c(OC)cc3C2)c1	99	-18	94
33	CCCc1nn2c(=O)cc(CN3CCCc4ccccc43)nc2s1	159	·	·
34	O=c1cc(CN2CCCc3ccccc32)nc2sccn12	-43*	-55	114
35	O=C(c1csc(S(=O)(=O)NC2CCCCC2)c1)N1CCCC1	98	·	·
36	CCOC(=O)c1ccccc1NC(=O)CSc1nccn1-c1cc(C)ccc1C	105	·	·
37	Cc1ccc2c(=O)c(C(=O)c3ccccc3)cn(CC(=O)Nc3ccccc3)c2n1	113	·	99
38	Cc1ccc2c(=O)c(C(=O)c3ccccc3)cn(CC(=O)Nc3ccc(C)c(F)c3)c2n1	139	72*	·
39	CC(C)N/C=C1\C(=O)c2ccccc2N(C)S1(=O)=O	99	5	103
40	CC(C)N=Cc1cc2n(c1O)-c1ccccc1C2=O	-20*	-120	58
41	Cc1ccc(C2(O)CN(c3ccccc3C)C3=[N+]2CCCC3)cc1 (stereo not drawn)	108	·	·
42	CC1CCN(S(=O)(=O)c2ccc(-c3nc(C#N)c(NC4CC4)o3)cc2)CC1	102	-38	·
43	CC(C)CN(CC(C)C)Cn1nc(-c2ccc3c(c2)OCO3)oc1=S	·	-10	70
44	CN(Cn1nc(-c2ccc3c(c2)OCO3)oc1=S)C1CCCCC1	·	1	45*
45	N#C/C(=C\c1ccc(-c2ccccc2C(=O)O)o1)c1nc2ccccc2[nH]1	289	-96	107
46	N#C/C(=C\c1ccc(-c2ccc(F)cc2F)o1)c1nc2ccccc2[nH]1	-6.1*	-50	91
47	O=C(Nc1nnc(C(F)(F)F)s1)c1ccccc1	98	14	55
48	CC(C)(Oc1ccc(Cl)cc1)C(=O)Nc1nnc(C(F)(F)F)s1	104	-14	-1.1*
49	O=C(Nc1ccccc1)Nc1nnc(C(F)(F)F)s1	99	-19	1.1*
50	CC(C)(Oc1ccc(Cl)cc1)C(=O)Nc1nccs1	·	-9	95

New compounds follow
cpd	molecule	GIV Gai3 FP	HCMV UL50-53 inh	Sa growth 42C
51	Cc1ccc(CCNC(=O)c2cnn(-c3ccc(Cl)cc3)c2)cc1	96	-13	·
52	CC(Oc1ccc(F)cc1)C(=O)Nc1nc(-c2ccc(F)cc2)ns1 (stereo not drawn)	99	-28	2.3*
53	COc1ccc(-c2nsc(NC(=O)C(C)Oc3ccc(Cl)c(C)c3)n2)cc1 (stereo not drawn)	102	1	84
54	CCCc1cc(O)c2c(C)cc(=O)oc2c1	·	-15	5.2*
55	CCCCc1cc(=O)oc2cc(C)cc(O)c12	99	-7	27
56	Cc1csc(-c2cc(S(=O)(=O)N3CCN(Cc4ccc5c(c4)OCO5)CC3)c(C)s2)n1	-0.1*	·	·
57	Cc1cc(C)c(S(=O)(=O)N2CCN(Cc3ccc4c(c3)OCO4)CC2)cc1C	101	-24	80
58	Nc1ccccc1NCCc1ccccc1	·	-11	9.1*
59	Nc1ccccc1NCCO	·	·	88
60	CCC(C(=O)Nc1ccc(F)cc1)n1nc(-c2ccccc2)c2c(c1=O)CCCC2 (stereo not drawn)	110	30	·
61	O=C(O)C(=O)/C=C(\O)c1ccccc1	94	-12	93
62	O=C(/C=C(\O)c1ccccc1)C(F)(F)C(F)F	97	-7	-0.8*
63	COc1ccc(C(=O)Nc2cnc3oc(-c4ccccc4OC(C)C)nn3c2=O)cc1OC	113	·	·
64	CS(=O)(=O)Nc1ccc(C2(C(=O)N3CCCC3)CCCCC2)cc1	97	·	·
65	O=C1CC(=O)N(Cc2ccco2)C(=O)N1	59*	87*	98
66	O=C1CC(=O)N(Cc2cccs2)C(=O)N1	114	-5	98

Six of the entries above in order of their number in GIV Gai3 FP, descending.
cpd | canonical_smiles | GIV Gai3 FP
57 | Cc1cc(C)c(S(=O)(=O)N2CCN(Cc3ccc4c(c3)OCO4)CC2)cc1C | 101
52 | CC(Oc1ccc(F)cc1)C(=O)Nc1nc(-c2ccc(F)cc2)ns1 (stereo not drawn) | 99
62 | O=C(/C=C(\O)c1ccccc1)C(F)(F)C(F)F | 97
51 | Cc1ccc(CCNC(=O)c2cnn(-c3ccc(Cl)cc3)c2)cc1 | 96
65 | O=C1CC(=O)N(Cc2ccco2)C(=O)N1 | 59*
56 | Cc1csc(-c2cc(S(=O)(=O)N3CCN(Cc4ccc5c(c4)OCO5)CC3)c(C)s2)n1 | -0.1*

A draw from above in order of heavy-atom count, largest number first:
cpd	molecule	GIV Gai3 FP	HCMV UL50-53 inh	Sa growth 42C
60	CCC(C(=O)Nc1ccc(F)cc1)n1nc(-c2ccccc2)c2c(c1=O)CCCC2 (stereo not drawn)	110	30	·
55	CCCCc1cc(=O)oc2cc(C)cc(O)c12	99	-7	27
54	CCCc1cc(O)c2c(C)cc(=O)oc2c1	·	-15	5.2*
